Assay results reported in patent US20240173419A1, “CDK2 DEGRADERS AND USES THEREOF” (Kymera Therapeutics, Inc., priority 2022, published 2024).

Molecular target: CDK2 (Homo sapiens, UniProt P24941)
Experiment: CDK2 degradation in MKN1 cells (AlphaLISA)
Details: for CDK2 degradation 14 h: Average Dmax %: 14 h incubation; for DC50: read-out: CDK2 degradation 14 h: Mean external-Abs DC50, 14 h incubation
Method: Degradation of CDK2 in MKN1 cells was measured using AlphaLISA technology (PerkinElmer ALSU-TCDK2-A10K). MKN1 cells were maintained in RPMI1640 medium containing 10% FBS+1× penn/strep. Cells were seeded in 96-well plates (Corning 3599) at a density of 2e4 cells per well in 80 μL of fresh complete growth medium. Cells were incubated overnight at 37° C., 5% CO2. Compounds were then added to the cell assay plates with a final top concentration of 10 μM in a 1:5 dilution series with a total of 11 doses (0.001 nM-10 μM). The final volume per well was 160 μL and the final DMSO concentration was 0.1%. Additionally, wells containing no cells and only complete growth medium were also maintained on the cell assay plates (‘no cell’ wells) and processed along with experimental wells. After 14 hour-incubation at 37° C., 5% CO2, the medium was removed and the cells were washed once with 100 μL of 1×PBS. Following removal of PBS, 40 μL of 1× Lysis Buffer containing 1× protease and phosphatase inhibitors (Roche 4693116001; Roche 4906837001) were added to each well. The cell assay plate was agitated on a plate shaker at 350 rpm for 10 minutes at room temperature. 10 μL of each cell lysate were transferred to a 384-well plate (PerkinElmer 6007290). 10 μL of control lysates (from PerkinElmer ALSU-TCDK2-A10K kit) were added to separate wells to generate a standard curve. Activation Buffer was prepared by diluting 25-fold in combined Reaction Buffer 1 and Reaction Buffer 2. Acceptor Beads were diluted 50-fold in combined Reaction Buffers. 5 μL of Acceptor Mix were added to each well. The plate was sealed with Topseal-Aadhesive film, covered with foil, and incubated in the dark for 1 hour at room temperature. Under subdued light, the Donor Beads were diluted 50-fold in Dilution Buffer. 5 μL of Donor Mix were added to each well under subdued light. The plate was sealed with Topseal-A adhesive film, covered with foil, and incubated in the dark for 1 hour at room temperature. Under subdued light, the plates were analyzed on an EnVision Microplate Reader (PerkinElmer Model 2009-0030). The average signal from ‘no cell’ wells was subtracted from the signal in experimental wells prior to calculating Alpha signal for test compounds and negative control (0.100 DMSO). The data were analyzed using Xlfit (v5.3. 1.3) and the dose-dependent CDK2 degradation data were fit using a four-parameter logistic model to calculate DC50.

CDK2 degradation 14 h: Average Dmax % | DC50 [nM] | SMILES
A (A (>75% o)) | < 100 | Cc1cc(S(=O)(=O)N[C@H](C)CO[C@H]2CC[C@H](CN3CCN(c4ccc5c(c4F)n(C)c(=O)n5C4CCC(=O)NC4=O)CC3)CC2)ccc1Nc1ncc(C(F)(F)F)c(N2CCCC(C)(O)C2)n1 (some centres unmarked)
A (A (>75% o)) | < 100 | Cc1cc(S(=O)(=O)C2CC3(CCN(CC4CCN(c5ccc6c(c5F)n(C)c(=O)n6C5CCC(=O)NC5=O)CC4)CC3)C2)ccc1Nc1ncc2ccc(=O)n(C3CCCC3)c2n1 (centres unmarked)
A (A (>75% o)) | < 100 | Cc1cc(S(=O)(=O)C2CC3(CCN(CC4CCN(c5ccc6c(c5F)n(C)c(=O)n6C5CCC(=O)NC5=O)CC4)CC3)C2)ccc1Nc1ncc2c(n1)N(C1CCCC1)C(=O)CC2 (centres unmarked)
A (A (>75% o)) | < 100 | Cc1cc(S(=O)(=O)N[C@H]2C[C@H](N3CC4CC3CN4CC3CCN(c4c(Cl)ccc5c4n(C)c(=O)n5C4CCC(=O)NC4=O)CC3)C2)ccc1Nc1ncc(C(F)(F)F)c(N2CCC[C@](C)(O)C2)n1 (some centres unmarked)
A (A (>75% o)) | < 100 | Cc1cc(S(=O)(=O)N[C@H](C)CO[C@H]2CC[C@H](CN3CCN(c4ccc5c(c4)n(C)c(=O)n5C4CCC(=O)NC4=O)CC3)CC2)ccc1Nc1ncc(C(F)(F)F)c([C@H]2CC[C@@](C)(O)CC2)n1 (some centres unmarked)
A (A (>75% o)) | < 100 | Cc1cc(S(=O)(=O)C2CC3(CCN(CC4CCN(c5ccc6c(c5F)n(C)c(=O)n6C5CCC(=O)NC5=O)CC4)CC3)C2)ccc1Nc1ncc(C(F)(F)F)c(N2CC[C@H](C(C)(C)O)C2)n1 (some centres unmarked)
A (A (>75% o)) | < 100 | Cc1cc(S(=O)(=O)N[C@H](C)CO[C@H]2CC[C@H](CN3CCN(c4cccc5c4n(C)c(=O)n5C4CCC(=O)NC4=O)CC3)CC2)ccc1Nc1ncc(C(F)(F)F)c([C@H]2CC[C@@](C)(O)CC2)n1 (some centres unmarked)
A (A (>75% o)) | < 100 | Cc1cc(S(=O)(=O)NC(C)COC2CC(CN3CCN(c4cccc5c4n(C)c(=O)n5C4CCC(=O)NC4=O)CC3)C2)ccc1Nc1ncc(C(F)(F)F)c(C2CCC(C)(O)CC2)n1 (centres unmarked)
A (A (>75% o)) | < 100 | Cc1cc(S(=O)(=O)C2CC3(CCN(CC4CCN(c5ccc6c(c5F)n(C)c(=O)n6C5CCC(=O)NC5=O)CC4)CC3)C2)ccc1Nc1ncc(C(F)(F)F)c(N2CCC[C@](C)(O)C2)n1 (some centres unmarked)
A (A (>75% o)) | < 100 | Cc1cc(S(=O)(=O)N[C@H]2CC[C@H](CN3CCN(c4cc(N[C@@H]5CCC(=O)NC5=O)ccc4F)CC3)CC2)ccc1Nc1ncc(C(F)(F)F)c(N2CCC[C@](C)(O)C2)n1
A (A (>75% o)) | < 100 | Cc1cc(S(=O)(=O)N[C@@H]2CCN(CC3CCN(c4ccc(C5CCC(=O)NC5=O)c(F)c4)CC3)C[C@@H]2F)ccc1Nc1ncc(C(F)(F)F)c(N2CCC[C@](C)(O)C2)n1 (some centres unmarked)
A (A (>75% o)) | < 100 | Cc1cc(S(=O)(=O)N[C@H](C)CO[C@H]2CC[C@H](CN3CCN(c4ccc5c(c4F)n(C)c(=O)n5C4CCC(=O)NC4=O)CC3)CC2)ccc1Nc1ncc(C(F)(F)F)c([C@H]2CC[C@@](C)(O)CC2)n1 (some centres unmarked)

The next lines start with the compound.

SMILES | CDK2 degradation 14 h: Average Dmax % | DC50 [nM]
Cc1cc(S(=O)(=O)CC2CN(C3CCN(CC4CCN(c5ccc6c(c5)n(C)c(=O)n6C5CCC(=O)NC5=O)CC4)CC3)C2)ccc1Nc1ncc2cc(Cl)c(=O)n(C(C)C)c2n1 (centres unmarked) | B (B (>50% -75%)) | > 1000
Cc1cc(S(=O)(=O)C2CC3(CCN(CCOC4CN(c5cccc(C6CCC(=O)NC6=O)c5)C4)CC3)C2)ccc1Nc1ncc2cc(Cl)c(=O)n(C3CCCC3)c2n1 (centres unmarked) | C (C (>25% -50%)) | > 1000
Cc1cc(S(=O)(=O)N[C@H]2CC[C@H](CN3CCN(c4ccc(C5CCC(=O)NC5=O)cc4F)[C@H](C)C3)CC2)ccc1Nc1ncc(C(F)(F)F)c(N2CCC[C@](C)(O)C2)n1 (some centres unmarked) | A (A (>75% o)) | < 100
Cc1cc(S(=O)(=O)N[C@H]2C[C@H](CN3CC(c4ccc(C5CCC(=O)NC5=O)c(Cl)c4)C3)C2)ccc1Nc1ncc(C(F)(F)F)c(N2CCC[C@](C)(O)C2)n1 (some centres unmarked) | B (B (>50% -75%)) | > 1000
Cc1cc(S(=O)(=O)N[C@H]2C[C@H](OCCN3CCC(c4ccc(C5CCC(=O)NC5=O)c(Cl)c4)CC3)C2)ccc1Nc1ncc(C(F)(F)F)c(N2CCC[C@](C)(O)C2)n1 (some centres unmarked) | A (A (>75% o)) | < 100
Cn1c(=O)n(C2CCC(=O)NC2=O)c2ccc(CCCOCCOCC(=O)N3CCC(Nc4ncc5cc(C(F)F)c(=O)n([C@@H]6CCC[C@@]6(C)O)c5n4)CC3)cc21 (some centres unmarked) | D (D (<25%)) | > 1000
Cc1cc(S(=O)(=O)N[C@H]2CC[C@H](N(C)C3CN(c4ccc(C5CCC(=O)NC5=O)cc4F)C3)CC2)ccc1Nc1ncc(C(F)(F)F)c(N2CCC[C@](C)(O)C2)n1 (some centres unmarked) | C (C (>25% -50%)) | > 1000
Cc1cc(S(=O)(=O)NC23CCC(CN4CCN(c5ccc(C6CCC(=O)NC6=O)c(Cl)c5)C[C@H]4C)(CC2)OC3)ccc1Nc1ncc(C(F)(F)F)c(N2CCC[C@](C)(O)C2)n1 (some centres unmarked) | A (A (>75% o)) | < 100
Cc1cc(S(=O)(=O)NCCOCCNC(=O)COc2ccc(C)c(N3CCC(=O)NC3=O)c2)ccc1Nc1ncc2cc(Cl)c(=O)n(C3CCCC3)c2n1 | C (C (>25% -50%)) | > 1000
Cc1cc(S(=O)(=O)NC23CC(CN4CCN(c5ccc(C6CCC(=O)NC6=O)c(Cl)c5)CC4)(C2)C3)ccc1Nc1ncc(C(F)(F)F)c(N2CCC[C@](C)(O)C2)n1 (some centres unmarked) | A (A (>75% o)) | < 100
Cc1cc(S(=O)(=O)NCCOCCNC(=O)c2ccc(Cl)c(N3CCC(=O)NC3=O)c2)ccc1Nc1ncc2cc(Cl)c(=O)n(C3CCCC3)c2n1 | D (D (<25%)) | > 1000
Cc1cc(S(=O)(=O)N2CCN(CCCCC#Cc3ccc4c(c3)n(C)c(=O)n4C3CCC(=O)NC3=O)CC2)ccc1Nc1ncc2ccc(=O)n(C3CCCC3)c2n1 (centres unmarked) | B (B (>50% -75%)) | > 1000
Cc1cc(S(=O)(=O)Nc2ccc(CN3CCN(c4ccc(C5CCC(=O)NC5=O)c(Cl)c4)CC3)cc2)ccc1Nc1ncc(C(F)(F)F)c(N2CCC[C@](C)(O)C2)n1 (some centres unmarked) | B (B (>50% -75%)) | < 100
Cc1cc(S(=O)(=O)N[C@H]2CC[C@H](CN3CCC(c4ccc(C5CCC(=O)NC5=O)cc4)C3)CC2)ccc1Nc1ncc(C(F)(F)F)c(N2CCC[C@](C)(O)C2)n1 (some centres unmarked) | B (B (>50% -75%)) | > 1000
Cc1cc(S(=O)(=O)N[C@H]2C[C@@H](CN3CC(c4ccc(C5CCC(=O)NC5=O)c(Cl)c4)C3)C2)ccc1Nc1ncc(C(F)(F)F)c(N2CCC[C@](C)(O)C2)n1 (some centres unmarked) | B (B (>50% -75%)) | > 1000
Cc1cc(S(=O)(=O)N[C@H]2CC[C@H](CN3CCN(c4cccc(NC5CCC(=O)NC5=O)c4)CC3)CC2)ccc1Nc1ncc2c(n1)N([C@@H]1CCC[C@@H](O)C1)C(=O)C21CC1 (some centres unmarked) | A (A (>75% o)) | < 100
Cc1cc(S(=O)(=O)NC2CC(CN3CCN(c4ccc(C5CCC(=O)NC5=O)c(Cl)c4)CC3)C2)ccc1Nc1ncc(C(F)(F)F)c(N2CCCC(C)(O)C2)n1 (single isomer, unassigned) | A (A (>75% o)) | < 100
Cc1cc(S(=O)(=O)N[C@H]2C[C@H](N3CCN(CC#Cc4cccc(N5CCC(=O)NC5=O)c4C)CC3)C2)ccc1Nc1ncc(C(F)(F)F)c(N2CCC[C@](C)(O)C2)n1 | C (C (>25% -50%)) | > 1000
O=C1CCC(N2Cc3cc(N4CCN(Cc5cccc(S(=O)(=O)N6CCC(Nc7ncc8ccc(=O)n(C9CCCC9)c8n7)CC6)c5)CC4)c(F)cc3C2=O)C(=O)N1 (centres unmarked) | A (A (>75% o)) | < 100
C[C@]1(O)CCCN(c2nc(Nc3ccc(S(=O)(=O)N[C@@H]4CCN(CC5CCN(c6ccc(C7CCC(=O)NC7=O)cc6F)CC5)C[C@@H]4F)cc3F)ncc2C(F)(F)F)C1 (some centres unmarked) | A (A (>75% o)) | < 100
Cc1cc(S(=O)(=O)NCCOCCOCC2CCN(c3ccc(N4CCC(=O)NC4=O)cc3)CC2)ccc1Nc1ncc2cc(Cl)c(=O)n(C3CCCC3)c2n1 | B (B (>50% -75%)) | 100 to 500
Cc1cc(S(=O)(=O)N[C@H]2CC[C@H](CN3CCN(c4ccc(N5CCC(=O)NC5=O)c(Cl)c4)CC3)CC2)ccc1Nc1ncc2c(n1)N([C@@H]1CCC[C@@H](O)C1)C(=O)C21CC1 | A (A (>75% o)) | < 100
